{"sequences": {"note": "Protein sequences, listed by entry. Tags and fused reporters are not part of them. Lines headed by an entry give the natural chain unless they say otherwise; changes in a name come on top.", "UniProt Q99572, whole entry": "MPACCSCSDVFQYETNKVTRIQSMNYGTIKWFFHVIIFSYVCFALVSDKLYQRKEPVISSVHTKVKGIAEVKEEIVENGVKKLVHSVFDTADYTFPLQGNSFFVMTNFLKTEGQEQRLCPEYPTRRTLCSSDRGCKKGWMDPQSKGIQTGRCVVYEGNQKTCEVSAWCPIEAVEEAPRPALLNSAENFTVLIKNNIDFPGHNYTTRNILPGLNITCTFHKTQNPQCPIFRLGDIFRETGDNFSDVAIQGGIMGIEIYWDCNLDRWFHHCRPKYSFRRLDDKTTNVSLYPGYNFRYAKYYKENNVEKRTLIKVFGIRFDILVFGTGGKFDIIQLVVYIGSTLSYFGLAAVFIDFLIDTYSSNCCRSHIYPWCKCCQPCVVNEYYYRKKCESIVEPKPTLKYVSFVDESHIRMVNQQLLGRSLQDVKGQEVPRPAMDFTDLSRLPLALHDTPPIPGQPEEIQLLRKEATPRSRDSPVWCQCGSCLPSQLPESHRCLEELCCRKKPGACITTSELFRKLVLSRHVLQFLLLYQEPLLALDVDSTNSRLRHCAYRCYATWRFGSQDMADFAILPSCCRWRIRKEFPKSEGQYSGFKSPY"}, "source": "ChEMBL document CHEMBL5725595", "about": "“Indole carboxamide derivatives as P2X7 receptor antagonists” (2017)", "biological_target": "P2X purinoceptor 7 (Homo sapiens, UniProt Q99572)", "note": "This is a selection: effects in other tests are not listed, and their absence says nothing.", "data": [{"smiles": "NC1(CNC(=O)c2ccc3[nH]ccc3c2Cl)CCCCC1", "values": [{"measurement": "IC50", "result": 1560, "unit": "nM"}]}]}
